Only a part is listed here, and it is no random draw. Calls of active or inactive are those of the source. Rule as the data show it: active = inhibition above about 15%; inconclusive = no clear call, values can overlap the other calls; inactive = below that.

Amino acid sequences for entries named in this document (tags omitted). A change or cut given only in a name is not applied to a line headed by its entry.
UniProt Q9NXA8: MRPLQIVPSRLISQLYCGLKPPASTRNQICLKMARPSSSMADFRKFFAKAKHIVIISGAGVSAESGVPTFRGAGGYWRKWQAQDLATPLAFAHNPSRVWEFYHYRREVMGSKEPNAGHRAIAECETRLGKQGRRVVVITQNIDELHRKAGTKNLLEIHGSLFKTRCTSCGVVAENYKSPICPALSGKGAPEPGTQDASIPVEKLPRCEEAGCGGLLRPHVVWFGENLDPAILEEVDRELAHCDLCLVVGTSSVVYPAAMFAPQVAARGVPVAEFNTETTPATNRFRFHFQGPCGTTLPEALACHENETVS

The target in the experiment is NAD-dependent protein deacylase sirtuin-5, mitochondrial (Homo sapiens) (UniProt Q9NXA8). Briefly: SIRT5 desuccinylase inhibitors, primary screen, biochemical, fluorescence imaging, single point, set 5 (AID 652115). The conditions noted are these: Purified SirT5, succinyl-peptide AMC, trypsin-coupled fluorescence; at 15 µM; active compounds read high.
Broadly, the inhibition is the relative decrease from the control value, in per cent. For `CC(C)CC(=O)NC(Sc1ccc(Cl)cc1)C(Cl)(Cl)Cl` (stereo not drawn), the inhibition was inactive: -1.8%.

Consider `Nc1cc(N)c2nonc2c1[N+](=O)[O-]`, for which the inhibition is inactive: -3.29%.

Take `O=C(NC(Sc1ccncn1)C(Cl)(Cl)Cl)c1ccccc1` (stereo not drawn): the inhibition is inactive: -9.15%.

As for `CCc1cc(O)c([N+](=O)[O-])c(C)c1[N+](=O)[O-]`, the inhibition is inactive: -3.01%.

Regarding `CC(C)(C)C(=O)NC(Sc1ccccc1)C(Cl)(Cl)Cl` (stereo not drawn), the inhibition was inactive: -0.167%.

On to `CCOc1ccc(C2=NCC(CBr)S2)cc1` (stereo not drawn), for which the inhibition was inactive: -2.12%.

As for `CC(=O)Nc1ccc(Oc2c([N+](=O)[O-])cc([N+](=O)[O-])cc2[N+](=O)[O-])cc1`, the inhibition was inactive: -0.195%.

Turning to `CC(=O)Nc1ccc([As](=O)(O)O)c(O)c1`, the inhibition was inactive: -3.59%.

With `COC(=O)C1(C)COP(=O)(NCc2ccccc2)OC1` (stereo not drawn), the inhibition is inactive: 2.41%.

Consider `N#C/C(=C\c1ccc(N(CCBr)CCBr)cc1)C(N)=O`, for which the inhibition was inactive: 1.18%.

As to `CC(=O)c1ccc(N2CC2c2ccncc2)cc1` (stereo not drawn), the inhibition is inactive: 1.15%.

In the case of `C[C@@H]1C=CCP(=O)(Oc2ccccc2)O1` (stereo partly drawn), the inhibition was inactive: -1.1%.

As for `C[C@H]1OP(=O)(Oc2ccccc2)C[C@@H]2O[C@@H]21` (stereo partly drawn), the inhibition is inactive: 0.118%.

In the case of `Cc1ccccc1CN(C)C(=O)COC(=O)C(O)(c1ccccc1)c1ccccc1`, the inhibition was inactive: 1.22%.

Regarding `O=P1(N(CCCl)CCCl)OCCC2CCCCN21` (stereo not drawn), the inhibition was inactive: -0.698%.

With `CCNC(=S)/N=C(\N)N[N+](=O)[O-]`, the inhibition is inactive: 0.332%.

Regarding `O=C(NC1CCS(=O)(=O)C1)NP(=S)(Oc1ccccc1)Oc1ccccc1` (stereo not drawn), the inhibition is inactive: 1.35%.

With `Cc1ccc(NP(=O)(Oc2cccc(C)c2)Oc2cccc(C)c2)nc1`, the inhibition was inactive: -7.34%.

In the case of `c1ccc(-c2nn[nH]n2)c(-c2nn[nH]n2)c1`, the inhibition was inactive: -0.054%.

On to `CN(C)C(=O)Oc1noc2ccccc12`, for which the inhibition is inactive: -2.54%.

`O=c1c2cc([N+](=O)[O-])ccc2[nH]c2c([N+](=O)[O-])cc([N+](=O)[O-])cc12`: the inhibition is inactive: -1.46%.

Regarding `Cc1ccccc1OP(=O)(Nc1ccccn1)Oc1ccccc1C`, the inhibition was inactive: -6.76%.

Take `CC(NC(=O)COC(=O)C(O)(c1ccccc1)c1ccccc1)c1ccccc1` (stereo not drawn): the inhibition is inactive: -4.88%.

`Cc1ccc(OP(=O)(Nc2ccccn2)Oc2ccc(C)cc2)cc1`: the inhibition was inactive: -3.28%.

As for `O=C(OC1CN2CCC1CC2)c1ccccc1` (stereo not drawn), the inhibition is inactive: 1.73%.

With `O=P(Nc1nc2ccccc2s1)(c1ccccc1)c1ccccc1`, the inhibition is inactive: 0.792%.

On to `Nc1ccc(CCCCOc2ccccc2)cc1`, for which the inhibition was inactive: -0.338%.

For `O=P(Nc1ccccn1)(c1ccc(Br)cc1)c1ccc(Br)cc1`, the inhibition was inactive: -4.53%.

As for `CN(C)C1(CNC(=O)c2ccc(Cl)c(S(N)(=O)=O)c2)CCCCC1`, the inhibition was inactive: -2.46%.

As to `Nc1ccc([As](=O)(O)c2ccc([N+](=O)[O-])cc2)cc1`, the inhibition was inactive: -0.981%.

For the compound `C(Cc1nn[nH]n1)Cc1nn[nH]n1`, the inhibition was inactive: -4.77%.

For the compound `O=[N+]([O-])c1ncn(CCn2cnc([N+](=O)[O-])n2)n1`, the inhibition was inactive: -3.33%.

Regarding `CC(=O)NC(SC(=S)N(C)C)C(Cl)(Cl)Cl` (stereo not drawn), the inhibition was inactive: -6.53%.

Regarding `O=[As](O)(c1ccccc1)c1ccc(O)cc1`, the inhibition is inactive: -3.52%.

Consider `CC(C)(C)C(=O)NC(Sc1ncccn1)C(Cl)(Cl)Cl` (stereo not drawn), for which the inhibition is inactive: 1.56%.

`O=P1(N(CCCl)CCCl)NCCC(C(F)(F)F)O1` (stereo not drawn): the inhibition is inactive: -2.11%.

Turning to `CN(CCCl)Cc1cc(Cl)c(NC2=NCCN2)c(Cl)c1`, the inhibition was inactive: -4.53%.

`CCOP(=O)(Nc1ccc(C)cn1)OCC`: the inhibition was inactive: -2.82%.

On to `CCOP(=O)(NC(=NC(C)c1ccccc1)NC(C)c1ccccc1)OCC` (stereo not drawn), for which the inhibition is inactive: -1.08%.

On to `CCC1=CC2Cc3nc4ccc(Cl)cc4c(N)c3C(C1)C2` (stereo not drawn), for which the inhibition was inactive: -2.52%.

On to `CC(C)/C=N\N=C(\N)N[N+](=O)[O-]`, for which the inhibition is inactive: -4.19%.

As to `CN(C(=O)Cc1ccc(Cl)c(Cl)c1)[C@@H]1CCCC[C@H]1N1CCCC1`, the inhibition was inactive: -4.29%.

For `COc1ccccc1CNC(=O)COC(=O)C(O)(c1ccccc1)c1ccccc1`, the inhibition is inactive: 0.918%.

Turning to `O=C(/C=C/c1ccccc1)OC1CN2CCC1CC2` (stereo not drawn), the inhibition was inactive: -0.277%.

Turning to `CC1CCC(C(C)C)C(OP(=O)(Nc2ccccn2)c2ccccc2)C1` (stereo not drawn), the inhibition is inactive: 2.36%.

With `Cc1ccc(C(=O)OC2CN3CCC2CC3)cc1` (stereo not drawn), the inhibition is inactive: 1.98%.

With `NS(=O)(=O)c1cccc(NC(=O)COC(=O)C(O)(c2ccccc2)c2ccccc2)c1`, the inhibition was inactive: -0.65%.

Turning to `O=[As](O)(c1cccs1)c1cccs1`, the inhibition was inactive: -3.94%.

Regarding `Nc1cccc([As](=O)(O)c2ccccc2)c1`, the inhibition was inactive: -0.907%.

For `Nc1ccccc1[As](=O)(O)c1ccccc1`, the inhibition was inactive: -2.42%.

Take `O=C(O)COc1ccc([As](=O)(O)O)cc1[N+](=O)[O-]`: the inhibition is inactive: -3.02%.

As to `O=P(Nc1nccs1)(Oc1ccccc1)Oc1ccccc1`, the inhibition was inactive: -0.572%.

With `CCOP1(=S)c2c(C)nn(CCC#N)c2N=C(c2ccccc2F)N1C` (stereo not drawn), the inhibition is inactive: 0.228%.

As for `CN(C(=O)Cc1ccc(Cl)c(Cl)c1)[C@H]1CC[C@@]2(CCCO2)C[C@@H]1N1CCCC1`, the inhibition is inactive: -10.1%.

`CN(C)C(=O)c1cc([N+](=O)[O-])cc2c1-c1c(cc([N+](=O)[O-])cc1[N+](=O)[O-])C2=O`: the inhibition was inactive: -0.783%.

On to `CCOP1(=S)c2c(C)nn(CCC#N)c2N=C(c2ccc(F)cc2)N1C` (stereo not drawn), for which the inhibition is inactive: -4.68%.

With `CN(C(=O)Cc1ccccc1)[C@@H]1CC[C@]2(CCCO2)C[C@H]1N1CCCC1`, the inhibition was inactive: -2.68%.

On to `N#CCCN(C(=O)COC(=O)C(O)(c1ccccc1)c1ccccc1)c1ccc(F)cc1`, for which the inhibition is inactive: -2.5%.

`NC(=O)Nc1ccc([As](=O)(O)O)cc1`: the inhibition was inactive: 0.78%.

As for `O=[As](O)(c1cccc(O)c1)c1cccc(O)c1`, the inhibition was inactive: -3.57%.

Take `CS(=O)(=O)c1ccc(Cl)c(NC(=O)COC(=O)C(O)(c2ccccc2)c2ccccc2)c1`: the inhibition was inactive: 1.47%.

For `COc1cc(C(=O)NCC2(N3CCOCC3)CCCCC2)cc(Cl)c1OC(C)C`, the inhibition is inactive: -1.69%.

In the case of `O=[As](O)(O)c1cccnc1`, the inhibition was inactive: -1.12%.
